# Data published in patent US4668689A, “Glutarimide derivatives for treating oestrogen-dependent tumors” (National Research Development Corporation, priority 1984, dated 1987).
# Sequences of proteins named here, by UniProt entry; tags and fusion partners are left off. A change or cut given only in a name is not applied to a line headed by its entry.
# UniProt P11511: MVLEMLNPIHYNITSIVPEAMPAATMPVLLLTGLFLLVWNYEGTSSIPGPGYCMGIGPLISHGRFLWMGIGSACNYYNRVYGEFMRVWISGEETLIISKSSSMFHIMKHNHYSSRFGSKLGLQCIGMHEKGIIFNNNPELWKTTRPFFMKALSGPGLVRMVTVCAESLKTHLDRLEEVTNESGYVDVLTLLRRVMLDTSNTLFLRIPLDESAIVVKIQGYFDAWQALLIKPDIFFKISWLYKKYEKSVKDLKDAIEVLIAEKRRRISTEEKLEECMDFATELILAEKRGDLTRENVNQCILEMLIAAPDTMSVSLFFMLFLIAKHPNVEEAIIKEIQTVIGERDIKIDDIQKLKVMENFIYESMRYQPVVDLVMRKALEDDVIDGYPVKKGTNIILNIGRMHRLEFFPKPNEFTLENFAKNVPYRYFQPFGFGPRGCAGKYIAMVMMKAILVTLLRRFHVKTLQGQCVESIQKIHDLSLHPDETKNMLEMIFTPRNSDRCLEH
# Assays:
# aromatase [1] = biological target: aromatase (Homo sapiens, UniProt P11511); assay: Aromatase inhibition, (1,2-^3H) testosterone as substrate ([…]), microsomal fraction of human placental tissue; details: read-out: IC50 Aromatase Testosterone, 30° C., "None" = no inhibition
# aromatase [2] = details: cited from earlier work
SMILES,IC50 (aromatase [1]),inhibition in vivo of aromatase in peripheral tissue (aromatase [2])
"CCCCC1(c2ccncc2)CCC(=O)NC1=O (centres unmarked) [R1=n-C4 H9, R2=H]",4 µM,–
CCCCN1C(=O)CCC(CC)(c2ccncc2)C1=O (centres unmarked),40 µM,–
CCCCCCCCCCN1C(=O)CCC(CC)(c2ccncc2)C1=O (centres unmarked),10 µM,–
CCC1(c2ccc(N)cc2)CCC(=O)NC1=O (centres unmarked) [Aminoglutethimide],–,inhibit in vivo the activity of the enzyme aromatase in peripheral tissue
"CCCC1(c2ccncc2)CCC(=O)NC1=O (centres unmarked) [R1=n-C3 H7, R2=H]",6 µM,–
